{"source": "patent US11452768B2", "about": "“Combination therapy with neoantigen vaccine” (The Broad Institute Inc., priority 2013, dated 2022)", "origin": "cited, not measured here", "system": "metastatic ccRCC", "details": "human, in vivo"}
{"substance": "HD-IL2: high dose interleukin-2", "values": [{"measurement": "Durable complete remission rate", "value": 7, "unit": "%"}]}
